Assay results: publication PMC8166343 (Biochemical Journal, 2021)

By UniProt entry, the sequences of proteins in these tests, tags left out. Residues count along the entry.
UniProt O75151, 1-451 limits assumed: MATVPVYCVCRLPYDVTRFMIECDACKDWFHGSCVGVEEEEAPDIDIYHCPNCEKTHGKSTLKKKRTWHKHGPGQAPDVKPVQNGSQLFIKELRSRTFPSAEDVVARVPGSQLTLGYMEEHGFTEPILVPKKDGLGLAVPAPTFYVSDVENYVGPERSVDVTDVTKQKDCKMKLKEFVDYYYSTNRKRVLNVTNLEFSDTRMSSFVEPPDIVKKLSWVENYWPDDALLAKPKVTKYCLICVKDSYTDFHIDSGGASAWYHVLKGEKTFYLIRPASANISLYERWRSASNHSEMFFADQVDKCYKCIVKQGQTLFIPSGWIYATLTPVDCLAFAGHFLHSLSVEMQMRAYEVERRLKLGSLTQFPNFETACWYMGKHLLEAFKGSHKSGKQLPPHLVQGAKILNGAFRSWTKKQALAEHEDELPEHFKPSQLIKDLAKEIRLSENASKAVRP

Experiments:
PHF2 (residues 1–451) = PHF2 (residues 1–451) (Homo sapiens, UniProt O75151); details: read-out: binding affinity (KD); PHF2 fragment (residues 1–451) containing PHD domain and Jumonji domain; H3K4me3 peptide; ref [36]; cited from earlier work
SPIN1 TUDOR = format: binding; details: 1 h, 4°C; pH 7.5
ING3 PHD = format: binding; details: 1 h, 4°C; pH 7.5
ING2 PHD = format: binding; details: 1 h, 4°C; pH 7.5
PHF2 PHD = format: binding; details: 1 h, 4°C; pH 7.5

ARTK(me3)QTARKSTGGKAPRK-biotin [H3 K4me3, reference compound]
Kd (PHF2 (residues 1–451)): 230 nM
pull-down of GST-SPIN1 TUDOR (SPIN1 TUDOR): interacted
pull-down of GST-ING3 PHD (ING3 PHD): methylation-dependent interactions
pull-down of GST-ING2 PHD (ING2 PHD): recognized
pull-down of GST-PHF2 PHD (PHF2 PHD): strongly interacted
